Among the data in PubChem BioAssay AID1347075 (National Center for Advancing Translational Sciences (NCATS), 2019) are activity change, negative = cytotoxic values, retold here.

This is a selection; strong and weak results do not stand in their true shares. Records with an inconclusive call do not appear. Activity calls are given as the source filed them. Calls come from the whole dose curve; as a rule, active = well fitted cell-killing curve with a large enough effect; inconclusive = small, poorly fitted or top-dose-only effect, or effect the other way; inactive = flat fitted curve, though single readings scatter.
% is set by controls: 0 for no effect and ±100 for the full control effect.

The assay is described as follows: qHTS assay for MDR1-selective chemotherapeutics: Primary screen using the parental adenocarcinoma cell KB-3-1. Note: nearly all actives have a fitted effect of over 60% in size. The settings on record: KB-3-1 viability, CellTiter-Glo ATP luminescence, 72 h; at 46.1 µM (top of the series). Summed up: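 Here the drug-naive KB-3-1 line serves as comparator for MDR sub-line selectivity; cells received compound titrations, 72 h at 37 °C, then CellTiter-Glo readout.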
(In general: In qHTS, concentration-response curves come from the screen itself.)
Turning to `COc1ccc(C(=O)NCC2(N3CCOCC3)CCCCC2)cc1OC`, the activity change, negative = cytotoxic is inactive: -1.75%.

For `O=c1[nH]c2ccccc2n1C1CCN(C(c2ccnc3ccccc23)c2nnnn2C2CCCC2)CC1` (configuration not stated), the activity change, negative = cytotoxic is inactive: 0.0287%.

Take `O=c1[nH]c2ccccc2n1C1CCN(C(c2cccs2)c2nnnn2C2CCCCC2)CC1` (configuration not stated): the activity change, negative = cytotoxic is inactive: -1.66%.

Consider `O=Cc1ccc(N(CCCl)CCCl)cc1`, for which the activity change, negative = cytotoxic was inactive: 13.4%.

On to `O=C(NCC1(N2CCOCC2)CCCCC1)c1cc(Br)ccc1Cl`, for which the activity change, negative = cytotoxic was inactive: -32.8%.

For the molecule `CCCCn1nnnc1C(c1ccccc1)N1CCC(n2c(=O)[nH]c3ccccc32)CC1` (configuration not stated), the activity change, negative = cytotoxic was inactive: 0.0564%.

As to `COc1cc(C(=O)NCC2(N3CCOCC3)CCCCC2)cc(OC)c1C`, the activity change, negative = cytotoxic is inactive: -1.03%.

With `CCCCn1nnnc1C(c1cccc(OC)c1OC)N1CCC(n2c(=O)[nH]c3ccccc32)CC1` (configuration not stated), the activity change, negative = cytotoxic was inactive: -11.6%.

Turning to `O=C(OC1CN2CCC1CC2)C1c2ccccc2C=Cc2ccccc21` (configuration not stated), the activity change, negative = cytotoxic is inactive: -19.7%.

In the case of `O=c1[nH]c2ccccc2n1C1CCN(C(c2cccs2)c2nnnn2C2CCCC2)CC1` (configuration not stated), the activity change, negative = cytotoxic was inactive: -0.0173%.

As to `O=C(O)c1cccc(Nc2c([N+](=O)[O-])cc([N+](=O)[O-])cc2[N+](=O)[O-])c1`, the activity change, negative = cytotoxic is inactive: 0.129%.

As for `N/C(=N\O)c1c(N)no[n+]1[O-]`, the activity change, negative = cytotoxic is inactive: 21.5%.

On to `CCOC(=O)N1CCC(Nc2ccc(C)cc2)CC1`, for which the activity change, negative = cytotoxic was inactive: -12%.

For `COc1cccc(C(c2nnnn2C(C)(C)C)N2CCC(n3c(=O)[nH]c4ccccc43)CC2)c1OC` (configuration not stated), the activity change, negative = cytotoxic was inactive: -1.34%.

Take `CCOC(=O)C(CC)C1=NC(C)(C)Cc2ccccc21.O=[N+]([O-])c1cc([N+](=O)[O-])c(O)c([N+](=O)[O-])c1` (configuration not stated): the activity change, negative = cytotoxic is inactive: 16.3%.

With `CC(C)(C)OC(=O)N1CCC(N(C(=O)c2ccccc2)c2ccc(Cl)cc2)CC1`, the activity change, negative = cytotoxic was inactive: -0.801%.

As for `O=C(NCC1(N2CCOCC2)CCCCC1)c1ccc([N+](=O)[O-])cc1`, the activity change, negative = cytotoxic was inactive: 10.2%.

Turning to `O=C(NCC1(N2CCOCC2)CCCCC1)c1ccccc1[N+](=O)[O-]`, the activity change, negative = cytotoxic was inactive: -28.3%.

As for `N#Cc1ccc(C(=O)NCC2(N3CCCCC3)CCCCC2)cc1`, the activity change, negative = cytotoxic is inactive: -3.84%.

As for `c1ccc(CN2CCC(Nc3ccccc3)CC2)cc1`, the activity change, negative = cytotoxic was inactive: -4.88%.

As for `CCCN1CCC(Nc2cc(OC)cc(OC)c2)CC1`, the activity change, negative = cytotoxic is inactive: 6.5%.

As to `O=c1[nH]c2ccccc2n1C1CCN(C(c2ccccc2)c2nnnn2C2CCCC2)CC1` (configuration not stated), the activity change, negative = cytotoxic is inactive: -8.54%.

For `O=C(NCC1(N2CCOCC2)CCCCC1)c1ccccc1`, the activity change, negative = cytotoxic was inactive: -0.0592%.

Regarding `CN(C)C1(CNC(=O)c2cccc(C#N)c2)CCCCC1`, the activity change, negative = cytotoxic is inactive: 0.0836%.

For `Cc1ccc(NC2(C#N)CCN(Cc3ccccc3)CC2)cc1`, the activity change, negative = cytotoxic was inactive: -11.3%.

Regarding `Cc1ccc(C(=O)NCC2(N3CCCCC3)CCCCC2)o1`, the activity change, negative = cytotoxic is inactive: -1.19%.

Take `Fc1ccccc1NC1CCN(Cc2ccccc2)CC1`: the activity change, negative = cytotoxic is inactive: 3.29%.

`COc1cc(OC)cc(C(=O)NCC2(N3CCCCC3)CCCCC2)c1`: the activity change, negative = cytotoxic was inactive: -13.1%.

In the case of `CN(C)C1(CNC(=O)c2ccc(C(C)(C)C)cc2)CCCCC1`, the activity change, negative = cytotoxic was inactive: -9.34%.

On to `CC(=O)N(c1ccccc1)C1CCNCC1`, for which the activity change, negative = cytotoxic was inactive: -12.8%.

As to `CCC(c1nnnn1C1CCCCC1)N1CCC(n2c(=O)[nH]c3ccccc32)CC1` (configuration not stated), the activity change, negative = cytotoxic is inactive: 0.0194%.

With `O=C(NCC1(N2CCCCC2)CCCCC1)c1ccco1`, the activity change, negative = cytotoxic was inactive: -5.82%.

Regarding `CC(C)(C)c1ccc(C(=O)NCC2(N3CCOCC3)CCCCC2)cc1`, the activity change, negative = cytotoxic is inactive: 1.56%.

As for `CN(C)c1ccc(C(=O)NCC2(N3CCCCC3)CCCCC2)cc1`, the activity change, negative = cytotoxic is inactive: -3.08%.

As for `Cn1c(=O)[nH]cc(N(CCCl)CCCl)c1=O`, the activity change, negative = cytotoxic was inactive: -14.9%.

Take `Cc1ccccc1C(=O)NCC1(N(C)C)CCCCC1`: the activity change, negative = cytotoxic was inactive: -2.95%.

With `Cc1ccccc1NC1(C#N)CCN(Cc2ccccc2)CC1`, the activity change, negative = cytotoxic was inactive: 4.41%.

In the case of `CCN1CCC(Nc2cccc(F)c2)CC1`, the activity change, negative = cytotoxic is inactive: 4.36%.

Take `CC(C)(C)n1nnnc1C(c1ccnc2ccccc12)N1CCC(n2c(=O)[nH]c3ccccc32)CC1` (configuration not stated): the activity change, negative = cytotoxic was inactive: -0.049%.

As for `ClCCN(CCCl)c1ccccc1`, the activity change, negative = cytotoxic is inactive: 18.3%.

Consider `CC(C)(C)OC(=O)N1CCC(Nc2ccccc2)CC1`, for which the activity change, negative = cytotoxic was inactive: -5.81%.

Turning to `ClCCN(CCCl)c1ccc(C=C2C=CC=C2)cc1`, the activity change, negative = cytotoxic was inactive: 9.25%.

Consider `NN(c1ccccc1)C1CCN(CCc2ccccc2)CC1`, for which the activity change, negative = cytotoxic was inactive: 16.8%.

For `O=C(O)C1(Nc2ccccc2)CCN(Cc2ccccc2)CC1`, the activity change, negative = cytotoxic is inactive: 3.75%.

As for `CCOc1ncccc1C(=O)NCC1(N2CCOCC2)CCCCC1`, the activity change, negative = cytotoxic was inactive: 1.1%.

`CN1CCC(Nc2ccc(F)c(Cl)c2)CC1`: the activity change, negative = cytotoxic is inactive: 1.11%.

As for `CN1CCC(Nc2ccc(Cl)cc2)CC1`, the activity change, negative = cytotoxic was inactive: 0.111%.

With `CCC(CO)(C(=O)OC1CN2CCC1CC2)c1ccccc1` (configuration not stated), the activity change, negative = cytotoxic was inactive: 2.79%.

Consider `COc1cccc(C(=O)N(c2cc(C)cc(C)c2)C2CCN(C(=O)OC(C)(C)C)CC2)c1`, for which the activity change, negative = cytotoxic was inactive: -9.81%.

Consider `COc1cc(C(=O)NCC2(N3CCOCC3)CCCCC2)cc(OC)c1OC`, for which the activity change, negative = cytotoxic is inactive: 6.04%.

With `COc1cc(OC)cc(C(=O)NCC2(N3CCOCC3)CCCCC2)c1`, the activity change, negative = cytotoxic is inactive: 15.1%.

With `COc1cccc(C(c2nnnn2C2CCCC2)N2CCC(n3c(=O)[nH]c4ccccc43)CC2)c1OC` (configuration not stated), the activity change, negative = cytotoxic was inactive: -9.93%.
